Data: US20260382728A1, “MODIFIED PROTEINS AND PROTEIN BINDERS AND DEGRADERS” (published 2026)

By UniProt entry, the sequences of proteins in these tests, tags left out.
UniProt P03372, whole entry: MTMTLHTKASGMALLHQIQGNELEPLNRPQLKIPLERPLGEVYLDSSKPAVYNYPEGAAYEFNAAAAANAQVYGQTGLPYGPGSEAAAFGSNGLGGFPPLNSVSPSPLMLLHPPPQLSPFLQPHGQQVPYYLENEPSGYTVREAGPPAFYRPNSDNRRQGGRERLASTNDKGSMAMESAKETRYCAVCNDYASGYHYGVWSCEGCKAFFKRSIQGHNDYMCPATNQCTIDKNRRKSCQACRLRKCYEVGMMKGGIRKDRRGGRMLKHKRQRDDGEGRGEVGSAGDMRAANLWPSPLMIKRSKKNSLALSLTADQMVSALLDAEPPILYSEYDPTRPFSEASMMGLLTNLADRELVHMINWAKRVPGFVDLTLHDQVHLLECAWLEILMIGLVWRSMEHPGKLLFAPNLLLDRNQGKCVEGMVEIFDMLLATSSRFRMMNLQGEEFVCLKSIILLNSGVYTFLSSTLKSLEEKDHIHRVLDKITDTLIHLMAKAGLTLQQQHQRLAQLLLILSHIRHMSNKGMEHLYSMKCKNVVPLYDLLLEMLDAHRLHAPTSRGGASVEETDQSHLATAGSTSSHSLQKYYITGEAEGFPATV
UniProt P11802, whole entry: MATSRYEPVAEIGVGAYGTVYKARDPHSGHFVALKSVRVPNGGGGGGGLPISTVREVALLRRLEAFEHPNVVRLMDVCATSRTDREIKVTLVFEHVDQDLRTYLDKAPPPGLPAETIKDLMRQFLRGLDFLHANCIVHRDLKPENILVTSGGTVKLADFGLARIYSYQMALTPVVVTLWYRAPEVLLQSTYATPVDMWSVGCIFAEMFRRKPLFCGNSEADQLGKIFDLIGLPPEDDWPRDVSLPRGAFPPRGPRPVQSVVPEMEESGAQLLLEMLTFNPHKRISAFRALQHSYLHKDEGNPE

Tests used:
ERα = ERα (Homo sapiens, UniProt P03372); experiment: ERα degradation in T47D cells; details: serum starved 2 hours, 24 hours, serum-free
BRD4 = BRD4 (Homo sapiens, UniProt O60885); experiment: BRD4 degradation in MV4;11 cells (immunoblotting)
MV4;11 cells = experiment: Cell viability inhibition of MV4;11 cells (CellTiter-Glo); details: read-out: Cell viability inhibition IC50, 3 days, 3-fold serial dilution
CDK4 [1] = biological target: T1, CDK4 (Homo sapiens, UniProt P11802); experiment: CDK4 degradation in MOLT-4 cells (immunoblotting); details: 8 hours
cyclin D1 = experiment: Cyclin D1 degradation in T47D cells (immunoblotting); details: 16 hours
CDK4 [2] = biological target: T1, CDK4; experiment: CDK4 degradation in T47D cells (immunoblotting); details: 16 hours

| % BRD4 Degradation (at 10 μM) (BRD4) | IC50 (MV4;11 cells) [nM] | % CDK4 Degradation (at 1 μM) (CDK4 [1]) | % CDK4 degradation (at 10 μM) (CDK4 [1]) | Compound | further results |
| --- | --- | --- | --- | --- | --- |
| – | – | – | – | O=C(NCCOCCOCCOc1ccc([C@@H]2c3ccc(O)cc3CC[C@@H]2c2ccccc2)cc1)c1ccnc(N2CCC3(CCN(c4ccccc4)C3)C2)c1 (stereo partly shown) | % ERα Degradation (at 1 μM) (ERα): D (D < 20%) |
| D (D < 20%) | 300 to 1000 | – | – | Cc1sc2c(c1C)C(c1ccc(Cl)cc1)=N[C@@H](CC(=O)NCCNC(=O)CN1CCN(c3cc(N[C@@H]4CCCN(c5cccc(F)c5)C4)ncn3)CC1)c1nnc(C)n1-2 | – |
| – | – | – | – | O=C(NCCCCOc1ccc([C@@H]2c3ccc(O)cc3CC[C@@H]2c2ccccc2)cc1)c1ccnc(N2CCC3(CCN(c4ccccc4)C3)C2)c1 (stereo partly shown) | % ERα Degradation (at 1 μM) (ERα): C (20% ≤ C < 40%) |
| D (D < 20%) | 100 to 300 | – | – | Cc1sc2c(c1C)C(c1ccc(Cl)cc1)=N[C@@H](CC(=O)NCCOCCOCCOCCN1CCN(c3cc(N[C@@H]4CCCN(c5cccc(F)c5)C4)ncn3)CC1)c1nnc(C)n1-2 | – |
| – | – | D (D < 20%) | C (20% ≤ C < 40%) | CC(C)S(=O)(=O)c1ccccc1Nc1nc(Nc2ccc(N3CCN(CC(=O)NCCCCCCN4CCN(c5cc(N[C@@H]6CCCN(c7cccc(F)c7)C6)ncn5)CC4)CC3)cc2)ncc1Cl | – |
| D (D < 20%) | 100 to 300 | – | – | Cc1sc2c(c1C)C(c1ccc(Cl)cc1)=N[C@@H](CC(=O)NCCCCCCCCN1CCN(c3cc(N[C@@H]4CCCN(c5cccc(F)c5)C4)ncn3)CC1)c1nnc(C)n1-2 | – |
| – | – | B (40% ≤ B < 70%) | A (A: ≥ 70%) | CC(C)S(=O)(=O)c1ccccc1Nc1nc(Nc2ccc(N3CCN(C(=O)CCOCCOCCOCCN4CCN(c5cc(N[C@@H]6CCCN(c7cccc(F)c7)C6)ncn5)CC4)CC3)cc2)ncc1Cl | – |
| A (A: ≥ 70%) | 100 to 300 | – | – | Cc1sc2c(c1C)C(c1ccc(Cl)cc1)=N[C@@H](CC(=O)NCCCCN1CCN(c3cc(N[C@@H]4CCCN(c5cccc(F)c5)C4)ncn3)CC1)c1nnc(C)n1-2 | – |
| – | – | – | – | C[C@]1(O)CCC[C@@H]1n1c(=O)c(C(F)F)cc2cnc(NC3CCN(C(=O)CCCCCN4CCN(c5cc(N[C@@H]6CCCN(c7cccc(F)c7)C6)ncn5)CC4)CC3)nc21 | % Cyclin D1 Degradation (at 1 μM) (cyclin D1): A (A: ≥ 70%); % CDK4 Degradation (at 1 μM) (CDK4 [2]): B (40% ≤ B < 70%) |
| – | – | D (D < 20%) | B (40% ≤ B < 70%) | CC(C)S(=O)(=O)c1ccccc1Nc1nc(Nc2ccc(N3CCN(C(=O)CN4CCN(c5cc(N[C@@H]6CCCN(c7cccc(F)c7)C6)ncn5)CC4)CC3)cc2)ncc1Cl | – |
| – | – | – | – | C[C@]1(O)CCC[C@@H]1n1c(=O)c(C(F)F)cc2cnc(NC3CCN(C(=O)CCCCCCCN4CCN(c5cc(N[C@@H]6CCCN(c7cccc(F)c7)C6)ncn5)CC4)CC3)nc21 | % Cyclin D1 Degradation (at 1 μM) (cyclin D1): D (D < 20%); % CDK4 Degradation (at 1 μM) (CDK4 [2]): C (20% ≤ C < 40%) |
| – | – | D (D < 20%) | C (20% ≤ C < 40%) | CC(C)S(=O)(=O)c1ccccc1Nc1nc(Nc2ccc(N3CCN(C(=O)CCCCN4CCN(c5cc(N[C@@H]6CCCN(c7cccc(F)c7)C6)ncn5)CC4)CC3)cc2)ncc1Cl | – |
| – | – | D (D < 20%) | A (A: ≥ 70%) | CC(C)S(=O)(=O)c1ccccc1Nc1nc(Nc2ccc(N3CCN(CC(=O)NCCOCCN4CCN(c5cc(N[C@@H]6CCCN(c7cccc(F)c7)C6)ncn5)CC4)CC3)cc2)ncc1Cl | – |
| D (D < 20%) | 100 to 300 | – | – | Cc1sc2c(c1C)C(c1ccc(Cl)cc1)=N[C@@H](CC(=O)NCCNC(=O)CCOCCOCCOCCN1CCN(c3cc(N[C@@H]4CCCN(c5cccc(F)c5)C4)ncn3)CC1)c1nnc(C)n1-2 | – |
| D (D < 20%) | 300 to 1000 | – | – | Cc1sc2c(c1C)C(c1ccc(Cl)cc1)=N[C@@H](CC(=O)NCCNC(=O)CCOCCOCCN1CCN(c3cc(N[C@@H]4CCCN(c5cccc(F)c5)C4)ncn3)CC1)c1nnc(C)n1-2 | – |
| – | – | – | – | C[C@]1(O)CCC[C@@H]1n1c(=O)c(C(F)F)cc2cnc(NC3CCN(C(=O)CCCCN4CCN(c5cc(N[C@@H]6CCCN(c7cccc(F)c7)C6)ncn5)CC4)CC3)nc21 | % Cyclin D1 Degradation (at 1 μM) (cyclin D1): A (A: ≥ 70%); % CDK4 Degradation (at 1 μM) (CDK4 [2]): A (A: ≥ 70%) |
| – | – | – | – | O=C(NCCOc1ccc([C@@H]2c3ccc(O)cc3CC[C@@H]2c2ccccc2)cc1)c1ccnc(N2CCC3(CCN(c4ccccc4)C3)C2)c1 (stereo partly shown) | % ERα Degradation (at 1 μM) (ERα): C (20% ≤ C < 40%) |
| – | – | D (D < 20%) | C (20% ≤ C < 40%) | CC(C)S(=O)(=O)c1ccccc1Nc1nc(Nc2ccc(N3CCN(C(=O)CCCCCN4CCN(c5cc(N[C@@H]6CCCN(c7cccc(F)c7)C6)ncn5)CC4)CC3)cc2)ncc1Cl | – |
| D (D < 20%) | 300 to 1000 | – | – | Cc1sc2c(c1C)C(c1ccc(Cl)cc1)=N[C@@H](CC(=O)NCCNC(=O)CCOCCN1CCN(c3cc(N[C@@H]4CCCN(c5cccc(F)c5)C4)ncn3)CC1)c1nnc(C)n1-2 | – |
| A (A: ≥ 70%) | < 100 | – | – | Cc1sc2c(c1C)C(c1ccc(Cl)cc1)=N[C@@H](CC(=O)NCCOCCN1CCN(c3cc(N[C@@H]4CCCN(c5cccc(F)c5)C4)ncn3)CC1)c1nnc(C)n1-2 | – |
